Screens from PubChem.
In the library only some 2.8% were active in any assay of this set; here they are far more common.
esBAF inh: blocks esBAF chromatin remodeling in mouse ES cells; Bmi1-luciferase knock-in reporter, 24 h; 100% = twice the neutral-well signal; reporter increase, % at 12.5 µM; actives 2% (n = 350,000); AID 602393; in the data active = activation above about 40%; inconclusive = no clear call, values can overlap the other calls;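 also: 0% = median of the plate's neutral control wells and 100% = double that signal; a rise in the Bmi1 reporter signal indicates esBAF inhibition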
MITF TRPM1 HTS: activators of MITF-driven TRPM1 promoter activity in SK-MEL-5 cells. SK-MEL-5 TRPM1-promoter luciferase, 24 h; % of positive control, neutral wells = 0. activation, % at 12.5 µM. actives 0.75% (n = 300,000). AID 588334;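 active = mean activation of at least 80% with every replicate also reaching 80%; inconclusive = mean reaches 80% but some replicate falls short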;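 also: 0% = neutral control wells and 100% = parthenolide positive control wells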
Wnt bcat act: activators of Wnt/beta-catenin signaling; Wnt/beta-catenin reporter cell assay, activator, plate reader; activation, % at 9.35 µM; actives 1.2% (n = 300,000); AID 743398; in the data active = activation above about 30%, passing the limit was not always enough; inconclusive = no clear call, values can overlap the other calls;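 also: 0% = neutral control wells and 100% = positive control wells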
PglD inh: PglD (C. jejuni) enzyme inhibition; purified PglD enzyme, DTNB colorimetric CoA detection; inhibition, % at 12.5 µM; actives 0.098% (n = 360,000); AID 602405; in the data active = inhibition above about 16%, passing the limit was not always enough; inconclusive = no clear call, values can overlap the other calls
UUG fidelity: alters start codon recognition fidelity in yeast; AID 602363; activity score, % at 18.7 µM; 350,000 tested, 0.13% active; S. cerevisiae UUG-firefly luciferase reporter, luminescence/redox ratio;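 active means replicate mean at a twofold rise or more, about +100% in these data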;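 further: firefly luciferase made from a UUG start codon reports start codon fidelity; reporter light over untreated wells divided by growth signal over untreated wells; some hits fall short of that in this replicate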
miR122 inh: blocks miR-122 activity in Huh7 sensor cells | actives 0.3% (n = 340,000) | activation (reporter increase), % at 12.5 µM | Huh7 miR-122 Renilla luciferase sensor, 48 h; neutral wells = 0, positive control = 100;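 active = mean replicate activation score at least 90 and every replicate individually at or above 90; inconclusive = only one of the two criteria met; inactive = neither criterion met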;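 also: higher luciferase means less miR-122 activity so hits act as miR-122 inhibitors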
esBAF Ring1 qPCR: confirmation of esBAF inhibitors: Ring1 de-repression in mouse ESCs | mouse ESC E14, Ring1 mRNA RT-qPCR fold change | fold change at 33 µM | 550 tested, under 10 active | shares compounds with esBAF inh | AID 743176;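 active = Ring1 gene expression raised more than 2-fold over untreated cells in both replicates at either tested dose; inconclusive = only one replicate above 2-fold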;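 also: Ring1 transcript normalised to actin housekeeping signal by TaqMan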
Fgf4 repress: represses Fgf4 in mouse ESCs, confirming esBAF inhibition; AID 743177; actives 4% (n = 550); mouse ESC E14, Fgf4 mRNA qPCR fold change; hits give low values; Fgf4 expression fold change at 33 µM; shares compounds with esBAF inh;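 active = Fgf4 expression under 0.8 fold of control in both repeat measurements at one or both tested doses; inconclusive = under 0.8 fold in just a single repeat measurement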;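 also: Fgf4 transcript normalised to actin in duplex TaqMan qPCR; cells exposed to compound for 24 h before lysis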
esBAF Bmi1 qPCR: de-represses Bmi1 in mouse ESCs, confirming esBAF inhibition; mouse ESE14 ES cells, Bmi1 mRNA qPCR fold; hits give high values; shares compounds with esBAF inh; AID 743180; 550 tested, under 10 active; fold change at 33 µM;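 active = Bmi1 expression fold change above 6 at either tested concentration, seen in replicate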;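 also: higher fold means more Bmi1 de-repression and stronger esBAF inhibition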
A549 tox SP: A549 cell cytotoxicity; 550 tested, under 10 active; plate reader; cell viability change % (negative = cytotoxic), % at 25 µM, hits read low; shares compounds with esBAF inh; AID 743188; call rule not given here
HepG2 tox SP: HepG2 cell cytotoxicity at single point; shares compounds with esBAF inh; plate reader; hits give low values; activity change, negative = inhibition, % at 25 µM; actives 4% (n = 550); in the data active = activity change below about -50%
HEK293 tox SP: kills or reduces viability of HEK293 cells. shares compounds with esBAF inh. HEK293 cytotoxicity, plate reader. activity change, negative = inhibition, % at 25 µM, hits read low. actives 3% (n = 550); in the data active = activity change below about -38%, passing the limit was not always enough
Starred values were filed as active, the others as inactive; ? = inconclusive; · = no result; [ ] = remark or other dose.

SMILES	esBAF inh	MITF TRPM1 HTS	Wnt bcat act	PglD inh	UUG fidelity	miR122 inh	esBAF Ring1 qPCR	Fgf4 repress	esBAF Bmi1 qPCR	A549 tox SP	HepG2 tox SP	HEK293 tox SP
CC(=O)Nc1ccc(CNc2nc3cc(-c4ccc(F)cc4)sc3c(=O)n2C)cc1	68*	·	2	7	-7	-4	1.1	1	2.4	-1	9	-27
CCCCC(=O)Nc1cccc(-c2nnc(-c3ccccc3)o2)c1	7	13	·	0	-20	-5	·	·	·	·	·	·
CCC(=O)Nc1cccc(-c2nnc(-c3ccccc3)o2)c1	74*	100*	1	-2	-8	-8	1.2	1.1	1.2	-11	15	-1
CCCCC(=O)N1CCCC(c2nc(-c3cccc(OC)c3)no2)C1 (centres undefined)	8	38	9	-3	0	8	·	·	·	·	·	·
COc1cccc(-c2noc(C3CCCN(C(=O)CC(C)(C)C)C3)n2)c1 (centres undefined)	83*	18	2	·	·	4	1.2	1	1.8	0	-25	-7
O=C(NCc1ccccc1)c1cc(=O)c2ccccc2o1	·	-3	·	·	·	·	·	·	·	·	·	·
O=C(Nc1ccccc1Cl)c1cc(=O)c2ccccc2o1	73*	·	11	-2	-12	3	1.2	1	1.1	-5	-7	-10
CCC(=O)Nc1ccc2c(c1)OC[C@@H](C)N(C(=O)Cc1ccccn1)C[C@H](C)[C@@H](OC)CN(C)C2=O	1	·	·	2	-2	11[16.7 µM]	·	·	·	·	·	·
CCc1ccc2cc3c(cc2n1)C(=O)c1ccccc1-3	61*	·	?	10	-43	-2	1.3	?	3.8	9	-11	6
Cc1nc2c(nc1C)C(=O)c1ccccc1C2=O	·	·	-3	·	·	8	·	·	·	·	·	·
C[C@H](CO)N1C[C@H](C)[C@H](CN(C)CC2CCCCC2)Oc2ccc(NC(=O)CCCN(C)C)cc2CC1=O	0	·	·	3	-28	-10[16.7 µM]	·	·	·	·	·	·
COc1cccc(-c2nc(-c3ccc(NC(=O)c4ccncc4)cc3)no2)c1	20	·	·	-4	3	-4	·	·	·	·	·	·
COc1cccc(-c2nc(-c3ccc(NC(=O)c4cccs4)cc3)no2)c1	62*	52	·	0	-15	-11	1.1	0.86	1.5	-15	-6	-18
COc1ccc(NC(=O)c2cc(-c3cccs3)on2)cc1	62*	110*	?	3	9	-14	0.96	?	2.1	-11	-3	8
COCC(=O)N[C@H]1CC[C@@H](CC(=O)N2CCCCC2)O[C@@H]1CO	-6	·	·	-2	-6	-11[16.7 µM]	·	·	·	·	·	·
COc1ccc(NC(=O)Nc2ccc3c(c2)C(=O)N([C@@H](C)CO)C[C@@H](C)[C@H](CN(C)C(=O)NC2CCCCC2)OCCCC[C@@H](C)O3)cc1	7	·	·	1	5	-9[16.7 µM]	·	·	·	·	·	·
CSc1ccccc1NC(=O)c1cc(-c2ccco2)on1	28	25	10	0	-2	2	·	·	·	·	·	·
CSc1ccccc1NC(=O)c1cc(C(C)C)on1	78*	·	·	-9	-20	-12	0.95	?	1.6	-11	-31	-11
C[C@H]1CN([C@@H](C)CO)C(=O)c2cc(C3=CCCCC3)cnc2O[C@@H]1CN(C)C(=O)c1ccc2c(c1)OCO2	4	·	·	-4	4	16[16.7 µM]	·	·	·	·	·	·
CC(=O)N(C)C[C@H]1Oc2cc(C#CCN(C)C)ccc2S(=O)(=O)N([C@H](C)CO)C[C@@H]1C	3	·	·	-4	-3	-3[16.7 µM]	·	·	·	·	·	·

3 entries from above, reformatted.
Results follow in this order: esBAF inh | MITF TRPM1 HTS | Wnt bcat act | PglD inh | UUG fidelity | miR122 inh | esBAF Ring1 qPCR | Fgf4 repress | esBAF Bmi1 qPCR | A549 tox SP | HepG2 tox SP | HEK293 tox SP
- COCC(=O)N[C@H]1CC[C@@H](CC(=O)N2CCCCC2)O[C@@H]1CO
  -6 | · | · | -2 | -6 | -11[16.7 µM] | · | · | · | · | · | ·
- COc1ccc(NC(=O)Nc2ccc3c(c2)C(=O)N([C@@H](C)CO)C[C@@H](C)[C@H](CN(C)C(=O)NC2CCCCC2)OCCCC[C@@H](C)O3)cc1
  7 | · | · | 1 | 5 | -9[16.7 µM] | · | · | · | · | · | ·
- CSc1ccccc1NC(=O)c1cc(-c2ccco2)on1
  28 | 25 | 10 | 0 | -2 | 2 | · | · | · | · | · | ·
